# Test results: patent EP4660190A1, “PHARMACEUTICALLY ACCEPTABLE SALT OF COMPOUND AND PREPARATION METHOD THEREFOR” (Jiangsu Chia Tai Fenghai Pharmaceutical Co., Ltd., priority 2023, dated 2024)
# Assays:
# [1] = tested on: rat spinal cord injury model; assay: Rat spinal cord injury model, BBB locomotor scores; assay type: in vivo, Male SD rats; settings: mean±SD
# [2] = Solubility of the tromethamine salt in water at different temperatures; assay type: physicochemical; settings: 1 g sample in water
substance,measurement,setting,value
(Z)-3-(1-hydroxybutenyl)benzofuran-2-one tromethamine salt [Example 10],BBB Locomotor Scores,"[1]; high dose 20 mg/kg ig qd, 3 d after dosing",0.4± 0.7
same,BBB Locomotor Scores,"[1]; high dose 20 mg/kg ig qd, 7 d after dosing",3.8±2.17
same,BBB Locomotor Scores,"[1]; high dose 20 mg/kg ig qd, 14 d after dosing",6.7±4.9
same,BBB Locomotor Scores,"[1]; high dose 20 mg/kg ig qd, 28 d after dosing",9.3±4.1
same,BBB Locomotor Scores,"[1]; high dose 20 mg/kg ig qd, Before dosing",0± 0
same,BBB Locomotor Scores,"[1]; low dose 5 mg/kg ig qd, 3 d after dosing",0.1± 0.3
same,BBB Locomotor Scores,"[1]; low dose 5 mg/kg ig qd, 7 d after dosing",1.4± 2.1
same,BBB Locomotor Scores,"[1]; low dose 5 mg/kg ig qd, 14 d after dosing",2.2± 3.5
same,BBB Locomotor Scores,"[1]; low dose 5 mg/kg ig qd, 28 d after dosing",4.8± 3.8
same,BBB Locomotor Scores,"[1]; low dose 5 mg/kg ig qd, Before dosing",0± 0
same,Volume of water for dissolution,[2]; 20°C,25 mL
same,Volume of water for dissolution,[2]; 25°C,20 mL
same,Volume of water for dissolution,[2]; 30°C,14 mL
